Laboratory results published in article PMC8412031 (ACS chemical neuroscience, 2018).

The chains behind the UniProt entries cited, without tags or fusion partners.
UniProt P14416, whole entry: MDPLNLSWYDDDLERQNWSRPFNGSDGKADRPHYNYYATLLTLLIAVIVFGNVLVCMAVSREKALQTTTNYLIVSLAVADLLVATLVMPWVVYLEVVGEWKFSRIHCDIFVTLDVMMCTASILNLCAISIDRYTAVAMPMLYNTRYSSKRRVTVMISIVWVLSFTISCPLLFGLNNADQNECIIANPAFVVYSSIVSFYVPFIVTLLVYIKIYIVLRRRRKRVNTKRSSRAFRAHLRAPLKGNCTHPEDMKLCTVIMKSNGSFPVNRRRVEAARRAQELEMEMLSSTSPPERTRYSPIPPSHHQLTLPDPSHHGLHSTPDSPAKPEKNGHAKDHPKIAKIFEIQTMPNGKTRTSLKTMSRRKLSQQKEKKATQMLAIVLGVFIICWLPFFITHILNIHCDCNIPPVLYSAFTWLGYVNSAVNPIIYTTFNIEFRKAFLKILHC

Target: dopamine D2 receptor (human D2long) (Homo sapiens, UniProt P14416)
Assay: radioligand competition vs [3H]MCL-536 on CHO-D2long membranes
Assay type: binding

SMILES: CCN1CCC[C@H]1CNC(=O)c1c(O)c(Cl)cc(Cl)c1OC [raclopride]
- Ki: 900 pM
